Series [1] in a line: Nanoparticle size by dynamic light scattering (DLS). The class given is physicochemical. Particulars: for average diameter: nanoparticles after vortex mixing of THF solution with mPEG-PCL stabilizer (12 ml/min) against water (120 ml/min); for particle stability as shown by DLS: initial concentration of conjugate in DMF 4 wt %, PEG-b-PCL (5k-5k). As for the experimental part: A 300 mM sucrose solution is prepared, loaded into a 100 ml gas tight syringe, and fixed on a second syringe pump. […] At the mixer outlet, two samples are collected. The first sample is collected in a scintillation vial and analyzed for particle size by dynamic light scattering (DLS), and the second sample is collected in low temperature freezer vials, and freeze-dried. The freeze-drying cycle is the following: −40° C. overnight, −10° C. for a day, 4° C. for a day, and then room temperature for one day. […] The samples are checked visually for crystals/aggregates formation. […] A freeze-dried sample is dissolved in methanol to dissociate the nanoparticles, and the solution is tested for the presence of THF using CGC. Particle size may be determined by DLS. […] The sample collected in a scintillation vial from the mixer effluent is inserted into the DLS sample cell containing decalin scintillation fluid (maintained at 25° C. using a temperature bath), and left to equilibrate to the cell temperature. The run duration is 60 seconds, replicated three times. The particle size expressed as the hydrodynamic diameter is obtained using an ALV 5000 correlator and a second order cumulant fit.

A short description of series [2]: Visual check / description of nanoparticle samples for crystals, aggregates, stability. It is filed as physicochemical. Conditions: nanoparticles stabilized with mPEG5-PCL7, visual observation. As for the experimental part: A 300 mM sucrose solution is prepared, loaded into a 100 ml gas tight syringe, and fixed on a second syringe pump. […] At the mixer outlet, two samples are collected. The first sample is collected in a scintillation vial and analyzed for particle size by dynamic light scattering (DLS), and the second sample is collected in low temperature freezer vials, and freeze-dried. The freeze-drying cycle is the following: −40° C. overnight, −10° C. for a day, 4° C. for a day, and then room temperature for one day. […] The samples are checked visually for crystals/aggregates formation. […] A freeze-dried sample is dissolved in methanol to dissociate the nanoparticles, and the solution is tested for the presence of THF using CGC.

Turning to PCL-paclitaxel [paclitaxel-PCL], the “nanoparticles size after 60 hours” value in series [1] (mPEG5-PCL6 stabilized nanoparticles, 60 hours) was 93 nm. In series [1] (DLS), this substance returned an average diameter of 75 nm.
With Rifampicin-VitES, in series [1], the “particle stability as shown by DLS” value was “stable”.
Take estradiol-VitES: the “duration of nanoparticle stability” value in series [1] (3:1 molar ratio of VitES to estradiol-VitES) is more than 30 days. Besides, the “increase in radius over the course of 48 hours” value in series [1] (estradiol-VitES with mPEG-PCL, CIJ mixer, DLS) is “less than 10%”.
For the substance paclitaxel-VitES, the “nanoparticles size after 17 hours” value in series [1] (mPEG5-PCL7 stabilized nanoparticles, 17 hours) is 134 nm. The same substance had an average diameter in series [1] (DLS) of 126 nm. In series [2], the “visible crystals or aggregates in the sample” value is listed as “No visible crystals or aggregates were observed”.
As for rifampicin-PCL, in series [1], the “particle stability as shown by DLS” value is reported as “stable”.

These data come from patent US10905775B2, “Particulate constructs for release of active agents” (CELATOR PHARMACEUTICALS, INC., priority 2004, dated 2021).
